The values below come from patent US6737397B1, “Control of cancer growth through the interaction of [MET5]-enkephalin and the zeta receptor” (The Penn State Research Foundation, priority 1996, dated 2004).

Protein sequences, listed by entry. Tags and fused reporters are not part of them. Lines headed by an entry give the natural chain unless they say otherwise; changes in a name come on top.
UniProt P41145: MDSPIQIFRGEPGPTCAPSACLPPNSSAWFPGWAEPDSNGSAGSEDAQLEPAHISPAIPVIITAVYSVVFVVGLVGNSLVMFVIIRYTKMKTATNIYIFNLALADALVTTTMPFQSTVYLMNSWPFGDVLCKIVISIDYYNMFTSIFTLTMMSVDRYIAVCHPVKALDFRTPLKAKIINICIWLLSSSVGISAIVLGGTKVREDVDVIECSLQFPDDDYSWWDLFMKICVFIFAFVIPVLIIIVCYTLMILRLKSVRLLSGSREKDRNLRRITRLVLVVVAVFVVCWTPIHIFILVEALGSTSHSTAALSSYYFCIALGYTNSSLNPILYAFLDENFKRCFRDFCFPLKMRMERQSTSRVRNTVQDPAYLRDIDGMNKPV

For the assay, the target named is κ-opioid receptor (Homo sapiens, UniProt P41145). The assay is described as follows: [3H]U-69593 binding to HT-29 nuclear (P1) and membrane (P2) homogenates.

`CN(C(=O)Cc1ccccc1)[C@H]1CC[C@@]2(CCCO2)C[C@@H]1N1CCCC1`: for the setting “P1 fraction”, the “Bmax, fmol/mg protein” value is listed as “*” and the “Kd, nM” value was “*”. Further, under “P2 fraction”, the “Bmax, fmol/mg protein” value is 13.9 ± 1.5 fmol/mg protein.
